The nature of series [1]: Pharmacokinetic study in rodents. It counts as in vivo. Particulars: male, plasma; Sprague-Dawley rat, IV 1 mg/kg; read-out: AUC (0-24 h). How it is done:
Sprague-Dawley rats (male, 5-6 weeks old) were obtained from Janvier (France). Rats were acclimatized for at least 7 days before treatment and were kept on a 12 hr light/dark cycle (0700-1900). Temperature was maintained at approximately 22° C., and food and water were provided ad libitum. Two days before administration of compounds 1 and 2, rats underwent surgery to place a catheter in the jugular vein under isoflurane anesthesia. After the surgery, rats were housed individually. Rats were deprived of food for at least 16 hours before oral dosing and 6 hours after. Water was provided ad libitum.
Compounds were formulated in PEG200/physiological saline (60/40) for the intravenous route and in 0.5% methylcellulose (compounds 1 and 2) and 10% hydroxylpropyl-β-cyclodextrine pH3 (compound 11) for the oral route. Test compounds were orally dosed as a single esophageal gavage at 5 mg/kg under a dosing volume of 5 ml/kg and intravenously dosed as a bolus via the caudal vein at 1 mg/kg under a dosing volume of 5 mL/kg. Each group consisted of 3 rats. […]
Plasma concentrations of each test compound were determined by an LC-MS/MS method in which the mass spectrometer was operated in positive electrospray mode.
Pharmacokinetic parameters were calculated using Winnonlin® (Pharsight®, United States).

The chains behind the UniProt entries cited, without tags or fusion partners. Where a name states a change or a piece, a line headed by the entry shows the natural chain unless it says otherwise.
UniProt P29597: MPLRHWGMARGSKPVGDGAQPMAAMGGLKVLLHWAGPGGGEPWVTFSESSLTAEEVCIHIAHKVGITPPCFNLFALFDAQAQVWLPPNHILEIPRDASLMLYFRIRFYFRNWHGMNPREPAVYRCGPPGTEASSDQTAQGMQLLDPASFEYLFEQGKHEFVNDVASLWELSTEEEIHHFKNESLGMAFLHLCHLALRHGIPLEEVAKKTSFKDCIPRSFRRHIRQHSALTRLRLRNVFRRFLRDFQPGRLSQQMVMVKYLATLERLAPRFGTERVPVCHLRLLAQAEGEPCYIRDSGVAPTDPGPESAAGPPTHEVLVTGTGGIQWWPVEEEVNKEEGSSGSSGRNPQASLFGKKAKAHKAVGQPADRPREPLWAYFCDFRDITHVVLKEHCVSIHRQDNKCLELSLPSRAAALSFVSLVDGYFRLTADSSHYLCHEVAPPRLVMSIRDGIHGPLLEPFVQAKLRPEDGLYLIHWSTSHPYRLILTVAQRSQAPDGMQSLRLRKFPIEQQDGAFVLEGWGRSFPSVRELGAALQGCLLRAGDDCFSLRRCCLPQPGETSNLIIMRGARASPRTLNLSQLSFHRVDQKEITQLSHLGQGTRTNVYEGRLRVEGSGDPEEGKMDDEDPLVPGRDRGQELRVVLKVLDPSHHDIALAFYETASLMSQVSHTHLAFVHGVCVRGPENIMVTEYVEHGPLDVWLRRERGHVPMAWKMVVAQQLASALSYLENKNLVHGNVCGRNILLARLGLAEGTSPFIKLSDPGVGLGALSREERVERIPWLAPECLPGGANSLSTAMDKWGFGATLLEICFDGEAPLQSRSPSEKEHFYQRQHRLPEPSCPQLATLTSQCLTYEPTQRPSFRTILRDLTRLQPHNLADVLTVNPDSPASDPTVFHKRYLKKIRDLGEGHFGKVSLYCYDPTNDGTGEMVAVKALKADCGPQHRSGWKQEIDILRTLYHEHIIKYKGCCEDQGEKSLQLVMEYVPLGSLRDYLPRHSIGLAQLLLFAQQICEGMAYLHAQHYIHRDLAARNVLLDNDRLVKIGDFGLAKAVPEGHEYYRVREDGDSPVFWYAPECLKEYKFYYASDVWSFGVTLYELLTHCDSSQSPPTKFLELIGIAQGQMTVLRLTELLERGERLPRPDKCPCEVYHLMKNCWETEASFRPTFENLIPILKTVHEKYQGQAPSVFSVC

Series [2] addresses TYK2 (Homo sapiens (Human), UniProt P29597). Description: biochemical.

Each structure is given as a SMILES string.

Consider `O=C(Nc1nc2cccc(-c3ccc(CN4CCS(=O)(=O)CC4)cc3)n2n1)C1CC1` [Compound 1, Cyclopropanecarboxylic acid {5-[4-(1,1-dioxo-1-thiomorpholin-4-ylmethyl)-phenyl]-[1,2,4]triazolo [1,5-a]pyridin-2-yl}-amide], for which the AUC(0-t) in series [1] stood at 739 ng·h/mL. Besides, the Kd in series [2] is 376 nM.

In general, Kd refers to the equilibrium constant for the complex coming apart. The low end stands for higher affinity, the high end for lower affinity.
